Key:
[1] = biological target: gastrin releasing peptide receptor (GRP-R), human (human) (UniProt P30550); assay: 125I-BBN competition, PC3 cells
[2] = biological target: bombesin receptor subtype 3 (BB3-R), human (human) (UniProt P32247); assay: displacement of 125I-universal ligand, human tumour sections

Protein sequences, listed by entry. Tags and fused reporters are not part of them. Lines headed by an entry give the natural chain unless they say otherwise; changes in a name come on top.
UniProt P30550: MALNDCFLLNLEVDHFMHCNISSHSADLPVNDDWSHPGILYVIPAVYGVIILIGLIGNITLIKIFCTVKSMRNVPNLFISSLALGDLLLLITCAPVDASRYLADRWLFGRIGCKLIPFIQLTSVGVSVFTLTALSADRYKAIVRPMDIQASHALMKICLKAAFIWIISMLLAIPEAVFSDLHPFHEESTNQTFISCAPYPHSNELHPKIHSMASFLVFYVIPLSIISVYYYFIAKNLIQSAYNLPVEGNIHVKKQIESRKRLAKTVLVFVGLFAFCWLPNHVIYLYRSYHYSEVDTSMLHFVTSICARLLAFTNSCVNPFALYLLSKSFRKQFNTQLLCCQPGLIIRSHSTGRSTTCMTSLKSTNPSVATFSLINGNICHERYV
UniProt P32247: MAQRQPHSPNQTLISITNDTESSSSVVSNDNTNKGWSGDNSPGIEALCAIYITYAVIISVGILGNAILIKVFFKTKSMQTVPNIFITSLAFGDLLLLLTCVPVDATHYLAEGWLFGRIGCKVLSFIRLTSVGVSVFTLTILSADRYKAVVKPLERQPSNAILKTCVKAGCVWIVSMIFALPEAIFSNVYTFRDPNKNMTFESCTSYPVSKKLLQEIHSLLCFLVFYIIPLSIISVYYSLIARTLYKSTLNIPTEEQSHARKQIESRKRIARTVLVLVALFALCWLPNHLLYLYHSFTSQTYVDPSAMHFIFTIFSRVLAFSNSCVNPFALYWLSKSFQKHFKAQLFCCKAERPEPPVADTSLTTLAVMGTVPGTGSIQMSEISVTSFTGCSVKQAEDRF

Substance	IC50 [1]	IC50 [2]
DO3A-monoamide-G-Abz4-QWAVaHLM-NH2 (peptide)	13 nM	
[DTyr^6, βAla^11, Phe^13, Nle^14]-BBN(6-14) (peptide)		1.1 nM

Reference: patent publication US20090175786A1
